ChEMBL document CHEMBL4706546, “Sulfoximines as Rising Stars in Modern Drug Discovery? Current Status and Perspective on an Emerging Functional Group in Medicinal Chemistry” (J Med Chem, 2020)

Chains of the proteins cited; added tags and fusions are not shown.
UniProt P27487, whole entry: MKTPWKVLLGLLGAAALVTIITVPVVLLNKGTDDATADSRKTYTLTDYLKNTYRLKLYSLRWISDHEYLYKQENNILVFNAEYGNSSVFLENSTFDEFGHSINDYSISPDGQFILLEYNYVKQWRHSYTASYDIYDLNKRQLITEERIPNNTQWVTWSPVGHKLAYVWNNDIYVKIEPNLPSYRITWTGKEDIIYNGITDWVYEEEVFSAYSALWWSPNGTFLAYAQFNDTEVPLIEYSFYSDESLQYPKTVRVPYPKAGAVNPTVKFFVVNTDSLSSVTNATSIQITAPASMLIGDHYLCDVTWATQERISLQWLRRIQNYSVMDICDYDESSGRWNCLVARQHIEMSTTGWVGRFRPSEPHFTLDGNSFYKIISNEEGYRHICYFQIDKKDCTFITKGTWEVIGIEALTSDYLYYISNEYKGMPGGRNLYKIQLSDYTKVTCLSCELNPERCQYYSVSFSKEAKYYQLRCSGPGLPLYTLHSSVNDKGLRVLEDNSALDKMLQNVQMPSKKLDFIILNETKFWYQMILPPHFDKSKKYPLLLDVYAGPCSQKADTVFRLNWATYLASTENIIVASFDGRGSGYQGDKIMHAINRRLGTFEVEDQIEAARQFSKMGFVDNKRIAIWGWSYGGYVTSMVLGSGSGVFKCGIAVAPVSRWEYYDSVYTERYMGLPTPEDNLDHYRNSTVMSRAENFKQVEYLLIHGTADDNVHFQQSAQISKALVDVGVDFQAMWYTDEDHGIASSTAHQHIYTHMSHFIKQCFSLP

Target: Dipeptidyl peptidase 4 (Homo sapiens, UniProt P27487)

IC50: 34 nM
Compound: C[C@]1(N2Cc3c[nH]nc3C2)CO[C@H](c2cc(F)ccc2F)[C@@H](N)C1
